# According to PMC9535023, “Inhibition of phospholipase D1 induces immunogenic cell death and potentiates cancer immunotherapy in colorectal cancer” (Experimental & Molecular Medicine, 2022):
# Test system: DLD1 cells
# Assay: Cell viability (MTT)
# Assay type: cell-based
# Conditions: dose- and time-dependent
# Procedure: Cell viability was measured by MTT (3-(4,5-dimethylthiazol2-yl)-2,5-diphenyltetrazolium bromide, Sigma-Aldrich). Cells (5 × 10^3 cells/well) were seeded in a 96-well plate. […] After treatment, the cells were incubated with 0.5 mg/mL MTT in the media for 2 h and lysed with DMSO. Absorbance was measured at 570 nm using a VersaMax ELISA microplate reader (Molecular Devices).
structure (smiles),measurement,value
"C[C@@H](CN1CCC(n2c(=O)[nH]c3cc(Cl)ccc32)CC1)NC(=O)c1ccc2ccccc2c1 [VU0155069, reference compound]","viability of DLD1 cells, in words",significantly inhibited the viability
